Reference: PubChem BioAssay AID588358 (NMMLSC, 2011)
The list shows a part of the results, in another mix than the full data. Some salts and complexes are drawn in separate pieces, as the source files them; their charges need not balance. Calls of active or inactive are those of the source.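 The calls were made as follows: active = binding more than 3 SD below its plate's average and above zero; inconclusive = below that plate limit but binding exactly zero; inactive = the rest.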

By UniProt entry, the sequences of proteins in these tests, tags left out.
UniProt P32926, whole entry, looked up: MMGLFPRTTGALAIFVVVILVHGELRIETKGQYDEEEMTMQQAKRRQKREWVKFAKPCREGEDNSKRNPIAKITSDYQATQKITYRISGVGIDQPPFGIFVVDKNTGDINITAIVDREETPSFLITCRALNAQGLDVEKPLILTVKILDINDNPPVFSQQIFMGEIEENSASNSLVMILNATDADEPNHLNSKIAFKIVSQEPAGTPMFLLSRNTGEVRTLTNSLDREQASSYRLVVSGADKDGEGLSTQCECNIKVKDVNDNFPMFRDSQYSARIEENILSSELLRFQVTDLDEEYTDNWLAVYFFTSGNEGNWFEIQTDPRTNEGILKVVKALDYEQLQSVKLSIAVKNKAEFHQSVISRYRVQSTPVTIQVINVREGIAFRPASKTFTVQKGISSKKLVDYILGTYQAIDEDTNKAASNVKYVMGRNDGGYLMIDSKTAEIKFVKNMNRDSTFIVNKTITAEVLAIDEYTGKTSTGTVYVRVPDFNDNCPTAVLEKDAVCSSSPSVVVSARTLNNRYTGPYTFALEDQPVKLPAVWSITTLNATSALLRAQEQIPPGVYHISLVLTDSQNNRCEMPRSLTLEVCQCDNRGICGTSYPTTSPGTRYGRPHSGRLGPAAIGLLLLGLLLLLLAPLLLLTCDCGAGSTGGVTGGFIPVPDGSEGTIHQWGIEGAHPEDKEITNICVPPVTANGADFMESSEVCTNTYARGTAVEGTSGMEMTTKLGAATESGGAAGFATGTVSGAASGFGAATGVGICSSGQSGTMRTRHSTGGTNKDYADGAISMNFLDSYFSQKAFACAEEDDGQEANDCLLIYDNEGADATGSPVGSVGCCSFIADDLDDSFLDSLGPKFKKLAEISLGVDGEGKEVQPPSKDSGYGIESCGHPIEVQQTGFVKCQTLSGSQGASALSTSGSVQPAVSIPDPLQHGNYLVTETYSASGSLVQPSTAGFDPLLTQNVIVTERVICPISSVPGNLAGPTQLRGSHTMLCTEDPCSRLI

target: Desmoglein-3 (Homo sapiens) (UniProt P32926); experiment: blockers of anti-DSG3 scFv binding – biochemical, bead-based, flow cytometry, scFv-GFP, primary screen (AID 588358); conditions: DSG3-coupled beads, at 10 µM, hits give low values;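 also: hits lower antibody fragment binding to DSG3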

Structure (SMILES)	binding (percent of control)
CP(=O)(Nc1ccccc1)Oc1ccc(F)cc1 (centres undefined)	inactive: 92.7%
Cc1c([N+](=O)[O-])cc([N+](=O)[O-])c(Br)c1[N+](=O)[O-]	inactive: 116%
COc1ccc(OP(C)(=O)Nc2ccc(SC(F)(F)F)cc2)cc1 (centres undefined)	inactive: 106%
CCOC(=O)c1ccc(NP(C)(=O)Oc2ccc(F)cc2)cc1 (centres undefined)	inactive: 121%
COc1ccc2c(c1O)-c1c(O)c(OC)cc3c1[C@H](C2)[N+](C)(C)CC3.O=[N+]([O-])c1cc([N+](=O)[O-])c([O-])c([N+](=O)[O-])c1[O-]	inactive: 100%
O=C(OCCN1CCN(CCOCc2ccccc2)CC1)C(O)(c1ccccc1)c1ccccc1	inactive: 127%
O=C(OC1CN2CCC1CC2)c1ccc([N+](=O)[O-])cc1 (centres undefined)	inactive: 117%
CC(C)c1ccc(OP(C)(=O)Nc2ccc(SC(F)(F)F)cc2)cc1 (centres undefined)	inactive: 102%
CP(=O)(Nc1ccccc1F)Oc1ccccc1 (centres undefined)	inactive: 102%
O=[N+]([O-])c1cc([N+](=O)[O-])c(Nc2ccc(Cl)cc2)c([N+](=O)[O-])c1	inactive: 99%
Cc1ccccc1NP(C)(=O)Nc1ccccc1C	inactive: 108%
CP(=O)(Nc1ccc2c(c1)OCCO2)Oc1ccccc1 (centres undefined)	inactive: 102%
Cc1c(C(c2ccc3c(c2)OCO3)c2c(C)n(C)n(-c3ccccc3)c2=O)c(=O)n(-c2ccccc2)n1C.O=[N+]([O-])c1cc([N+](=O)[O-])c(O)c([N+](=O)[O-])c1	inactive: 103%
Cc1cc(-c2cccc3ccccc23)c(C)cn1.O=[N+]([O-])c1cc([N+](=O)[O-])c(O)c([N+](=O)[O-])c1	inactive: 102%
O=[N+]([O-])c1cc([N+](=O)[O-])c(NCC2CCS(=O)(=O)C2)c([N+](=O)[O-])c1 (centres undefined)	inactive: 102%
O=[N+]([O-])c1ccc(OP2(=O)COCCO2)cc1 (centres undefined)	inactive: 92%
COc1ccc(NP(C)(=O)Oc2ccccc2OC)cc1 (centres undefined)	inactive: 101%
CN(C)CCOC(=O)C(O)(c1ccccc1)C1CCCCC1 (centres undefined)	inactive: 89.1%
COc1ccc(OP(C)(=O)Nc2cccc(Br)c2)cc1 (centres undefined)	inactive: 103%
CP(=O)(OC12CC3CC(CC(C3)C1)C2)OC12CC3CC(CC(C3)C1)C2	inactive: 102%
CCOC(=O)c1ccc(NP(C)(=O)Oc2ccc(Cl)cc2)cc1 (centres undefined)	inactive: 127%
Nc1ccc2c(ccc3cccnc32)n1.O=[N+]([O-])c1cc([N+](=O)[O-])c(O)c([N+](=O)[O-])c1	inactive: 98%

Structure (SMILES)	binding (percent of control)
CN(C)C(=O)c1c([N+](=O)[O-])cc([N+](=O)[O-])cc1[N+](=O)[O-]	inactive: 99.8%
CP(=O)(Nc1ccc(Cl)cc1)Oc1ccc(F)cc1 (centres undefined)	inactive: 103%
COc1ccccc1OP(C)(=O)Nc1ccccc1Br (centres undefined)	inactive: 95.3%
CC(C)(C)c1ccc(OP(C)(=O)O)cc1	inactive: 103%
CP(=O)(Oc1ccccc1)N1CCOC1=O (centres undefined)	inactive: 108%
COc1ccccc1OP(C)(=O)Nc1c(C)n(C)n(-c2ccccc2)c1=O (centres undefined)	inactive: 101%
COc1ccc(OP(C)(=O)Nc2ccc(Br)cc2)cc1 (centres undefined)	inactive: 106%
CCc1ccc(OP(C)(=O)O)cc1	inactive: 96.1%
COc1ccccc1OP(C)(=O)Nc1ccc(C)cc1C (centres undefined)	inactive: 91.7%
CP(=O)(Nc1ccccn1)Oc1ccccc1 (centres undefined)	inactive: 98.8%
Cc1c(NP(C)(=O)Oc2ccc(C(C)C)cc2)c(=O)n(-c2ccccc2)n1C (centres undefined)	inactive: 100%
O=[N+]([O-])c1cc([N+](=O)[O-])c(Nc2ccccn2)c([N+](=O)[O-])c1	inactive: 104%
CN(C)CCOC(=O)C(O)(c1ccccc1)C1CCCC1 (centres undefined)	inactive: 104%
COc1ccc(OP(C)(=O)Nc2ccccn2)cc1 (centres undefined)	inactive: 93.2%
COc1ccccc1OP(C)(=O)Nc1ccc(Br)cc1 (centres undefined)	inactive: 82.3%
CCCCCCCCCCCCCCCC1C[N+](C)(C)CCOP(C)(=O)O1 (centres undefined)	inactive: 121%
CP(=O)(Nc1ccc(Cl)cc1Cl)Oc1ccccc1 (centres undefined)	inactive: 104%
CP(=O)(OCCOc1ccccc1)OCCOc1ccccc1	inactive: 104%
COc1ccc(OP(C)(=O)Nc2ccccc2Br)cc1 (centres undefined)	inactive: 95%
COc1ccccc1OP(C)(=O)Nc1ccc(C)c(C)c1 (centres undefined)	inactive: 100%
Cc1cc(C)cc(OP(C)(=O)Nc2cccc(C(F)(F)F)c2)c1 (centres undefined)	inactive: 104%
O=C1C(O)=C([N+](=O)[O-])C(=O)C(O)=C1[N+](=O)[O-]	inactive: 119%
